Target: PIK3CB (Human) (UniProt P42338)
Assay: Enzyme Assay

By UniProt entry, the sequences of proteins in these tests, tags left out. Where a name states a change or a piece, a line headed by the entry shows the natural chain unless it says otherwise.
UniProt P42338: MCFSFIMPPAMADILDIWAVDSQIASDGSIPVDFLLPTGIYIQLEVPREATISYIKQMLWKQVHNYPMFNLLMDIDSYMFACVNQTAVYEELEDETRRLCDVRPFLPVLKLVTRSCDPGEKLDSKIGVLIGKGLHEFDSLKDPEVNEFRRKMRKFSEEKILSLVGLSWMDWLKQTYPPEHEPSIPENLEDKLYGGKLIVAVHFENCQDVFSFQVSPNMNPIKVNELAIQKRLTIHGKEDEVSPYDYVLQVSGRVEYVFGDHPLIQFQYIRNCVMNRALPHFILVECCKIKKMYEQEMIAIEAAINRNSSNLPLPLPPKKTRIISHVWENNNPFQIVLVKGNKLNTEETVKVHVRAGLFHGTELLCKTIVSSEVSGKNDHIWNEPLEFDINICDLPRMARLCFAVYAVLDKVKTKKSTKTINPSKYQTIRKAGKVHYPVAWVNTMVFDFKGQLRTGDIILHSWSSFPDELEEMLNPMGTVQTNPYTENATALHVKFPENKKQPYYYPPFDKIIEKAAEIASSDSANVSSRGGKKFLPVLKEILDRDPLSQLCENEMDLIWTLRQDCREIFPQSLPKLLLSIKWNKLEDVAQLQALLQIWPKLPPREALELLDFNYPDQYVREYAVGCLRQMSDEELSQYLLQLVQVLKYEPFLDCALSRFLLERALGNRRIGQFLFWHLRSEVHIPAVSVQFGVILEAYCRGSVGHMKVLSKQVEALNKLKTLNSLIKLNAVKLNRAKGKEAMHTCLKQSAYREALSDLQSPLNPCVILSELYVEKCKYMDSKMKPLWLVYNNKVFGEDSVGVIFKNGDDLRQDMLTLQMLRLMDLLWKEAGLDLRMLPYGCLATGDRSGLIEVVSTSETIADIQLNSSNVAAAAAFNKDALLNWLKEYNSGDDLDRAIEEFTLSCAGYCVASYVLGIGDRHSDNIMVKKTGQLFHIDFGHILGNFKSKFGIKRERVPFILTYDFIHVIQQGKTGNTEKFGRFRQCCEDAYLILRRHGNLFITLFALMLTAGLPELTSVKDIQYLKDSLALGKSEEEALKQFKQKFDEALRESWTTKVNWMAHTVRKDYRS

For `Nc1ncc(-c2cc(N3CCOCC3)nc(N3CCOCC3)n2)c(C(F)(F)F)n1`, the IC50 was 37 nM.

From the Kinase Knowledgebase extract (Sharma et al. 2016)
